## scFv variants of Ab-14 (light chain) against a SARS-CoV-2 spike peptide

The measurements come from Li et al. 2023 (doi:10.1038/s41467-023-39022-2) through the FLAb antibody collection.

Target: peptide PDVDLGDISGINAS, taken from heptad repeat 2 (HR2) of SARS-CoV-2 spike.

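The starting antibody came from a phage panning campaign against this peptide. These sequences belong to a second round, designed from the earlier measurements on random variants of the parent. Several design methods are mixed in this list. In AlphaSeq, yeast of one mating type display the scFv and yeast of the other type display the target. Mating (16 h, 30 °C) was followed by selection of diploids and sequencing of their barcodes. Read counts were normalised to the haploid input and turned into Kd by a linear fit to BCL2-family pairs of known affinity, for each replicate. Mating was done six times.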

Parent: Ab-14, a human scFv built as VH, a 15-residue (Gly4Ser)3 linker, VL. Only the CDRs of the light chain vary.
VH: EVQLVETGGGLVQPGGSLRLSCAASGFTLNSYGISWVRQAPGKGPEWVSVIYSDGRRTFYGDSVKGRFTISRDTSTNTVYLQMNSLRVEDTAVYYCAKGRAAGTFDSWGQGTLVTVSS
VL: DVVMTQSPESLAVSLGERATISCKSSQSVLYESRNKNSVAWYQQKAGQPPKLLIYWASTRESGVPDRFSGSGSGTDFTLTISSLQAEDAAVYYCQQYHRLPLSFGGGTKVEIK

Variants are written as CDR1, CDR2 and CDR3 of the light chain (limits as in the source). Parent: KSSQSVLYESRNKNSVA, WASTRES, QQYHRLPLS.
Values are apparent Kd, the geometric mean of the replicates that gave a signal; lower means stronger binding.
A pair that was not seen in any replicate is written "nd"; this usually means weak binding, but a binder can also be missed.

With KLSQSWLYESRMKNSVA, NASTRMS, QQYHRLPLS the result was 1.7 nM (6 of 6 replicates).
With NVGNEDPGQNYMHDSIA, GRSLRAE, QQYWRLPLL the result was 690 pM (6 of 6 replicates).
With KISQSVGYESRNLNSVA, WLSTRES, QQYHPLPLS the result was nd (0 of 6 replicates).
With MISMMHASQYNESSSIA, NAEALNS, QQYHELPLS the result was 280 nM (6 of 6 replicates).
With KLSGSMLYESRNKNNVA, EAHQRES, QMYHRLPLS the result was 5.1 nM (6 of 6 replicates).
With KLEWSDLLESRNKQSVA, QASTRMS, QQYHRLPLS the result was 2.4 nM (6 of 6 replicates).
With KLSQYAGGESRNKSSLA, DNSTRES, QQYHRLPLS the result was 180 nM (6 of 6 replicates).
With MISDLTMYGSRNKNSVA, DLSTRGS, QQYHHLPLS the result was 840 pM (6 of 6 replicates).
With KLEQSKLYESRNKNSVA, NASTRES, QQYHRLPLS the result was 670 pM (6 of 6 replicates).
With KFSQSVFYESGNGNPVA, DASTRES, QQYHMLPLS the result was 8.3 nM (6 of 6 replicates).
With MISQLYNMGTFAINSVA, QASERCN, QQYDRLPLM the result was 120 nM (5 of 6 replicates).
With TISQMTSLFSQTINNVA, EVSMREE, QQYDRLPLV the result was 2.8 nM (5 of 6 replicates).
With KSSQSFLYESRNSNSVA, AASTRES, QQYHHLPLS the result was 1.1 nM (6 of 6 replicates).
With KLSQVTRSESRNKNSIA, EMVTREV, QQYDRLPLS the result was 6.9 nM (6 of 6 replicates).
With KVSEFMRGLMSRQDSIA, DNVTRNY, QQYDRLPLS the result was 38 nM (6 of 6 replicates).
With KLSQSVLMESRNKNNVA, EASQRES, QQYHRLPLS the result was 520 pM (6 of 6 replicates).
With KLYQNVGTMSHNKQSIA, DMERREE, QQYHRLPLS the result was 1.3 nM (6 of 6 replicates).
With KLSQSVLYESQNKNQVA, GSSTRMS, QQYHRLPLS the result was 890 pM (6 of 6 replicates).
With MISQILNMGQFAINSVA, QASLRNE, QQYDRLPLM the result was 37 nM (5 of 6 replicates).
With KLSMVTEYESRNKNNVA, DLSTRGS, QDYHRLPLS the result was 530 pM (6 of 6 replicates).
With SITQLVAYGQRNKNSVA, QMSTREN, QQYDRLPLS the result was 410 nM (3 of 6 replicates).
With KISQSVLYESRNKNSVA, NGSTRES, QQYHRLPLS the result was 370 pM (6 of 6 replicates).
With KISQMVRVGSTLSNSIA, EEVTRAK, QQYHRLPLM the result was 8.6 nM (3 of 6 replicates).
With KIAYQADMYGAQCNNVA, HADIREP, QQYFKLPLN the result was 5.7 nM (6 of 6 replicates).
With MLSQMWGIGMKAKNSVA, QASIRFN, QQYDRLPLI the result was 100 nM (6 of 6 replicates).
With KSSGSVMGEDMNKNSVA, HASKRES, QQYHRLPLS the result was 2.9 nM (6 of 6 replicates).
With KDSQSVLTESRNKNNVA, WASHRES, QQYHRLPLS the result was 49 nM (6 of 6 replicates).
With KLSQSGLYGMRNKNSVA, QASQRLS, QQYHRLPLS the result was 2.3 nM (6 of 6 replicates).
With KLRQSTLYESRNKNSVA, GASTRES, QQYHRLPLS the result was 500 pM (6 of 6 replicates).
With KVSEFMRGLMMRKDSIA, DNETRQS, QQYDRLPLS the result was 41 nM (5 of 6 replicates).
With KSSQSVLYESRNKNSVA, NASTRES, QQYHRIPLS the result was 54 nM (6 of 6 replicates).
With KMQQSVLYESRNKNSVA, NASTRMS, QQYHRLPLS the result was 1.4 nM (6 of 6 replicates).
With KSSISYLYESENKMSVA, EASQRES, QQYHRLPLS the result was 31 nM (1 of 6 replicates).
With KSDMSVYFESRNKNSVA, WASTRES, QQYHRLPLS the result was 300 nM (5 of 6 replicates).
With TISESTYWESFNKNSVA, QTSTREE, QDYDRLPLS the result was 310 nM (2 of 6 replicates).

In the paper, a design with two or fewer of six values counts as a poor binder.
Empty control strains, which show no peptide, gave a signal in 4% of pairings with all light chain designs; the median was 430 nM and 95% of these signals were weaker than 38 nM. No background was subtracted.
Values of this round are not directly comparable with the first-round values of the same sequences.